What was measured:
[1] = system: human hippocampal lysates; test: Quenched Aβ peptide (qAβ) degradation assay in human hippocampal lysates at different Braak stages; format: biochemical; conditions: Braak VI compared to Braak 0
Procedure: Since the hippocampus is highly susceptible to Aβ accumulation, we examined whether the ability to degrade Aβ is affected in sporadic (sAD) using human hippocampal tissue of post-mortem brains with varying Braak stages. Included were Braak 0 (control, no AD) and Braak I-VI. When the ability to degrade qAβ was determined for each Braak stage (Fig. 2A, solid bars), a strong decrease in qAβ degradation rate was already observed in Braak stage I (t-test, two-tailed, p=0.03), which further decreased during the progression to Braak stage II (t-test, two-tailed, p=0.01). […] In Braak VI, qAβ degradation rate decreased with more than 65% compared to Braak 0. […] Also oligomerized Aβ was less well degraded with increasing Braak stage (Fig. 2B). AD progression can also be classified by plaque distribution in well defined brain areas giving a particular amyloid score, ranging from O (no plaques) to C. Similar to increasing Braak stages, the rate of qAβ degradation decreased with increasing amyloid score, being significant for hippocampal fractions of brains classified with amyloid score C (t-test, two-tailed, p=0.017) (Fig. 2C). […]
HFIP-treated aliquots of Aβ40 were resuspended in DMSO followed by sonication for 10 minutes, immediately before use. […] Degradation of the peptide was analyzed at 37°C using the FLUOstar OPTIMA (BMG Labtec.).

[2] = system: HEK293 cytosolic fractions; test: Quenched Aβ peptide (qAβ) degradation assay in HEK293 cytosolic fractions, with and without protease inhibitors; format: biochemical
Description: We developed a sensitive Aβ degradation assay by generating a quenched Aβ40 peptide containing a small fluorescein group and a quenching dabcyl group (Reits et al., 2004) flanking the KLVFF sequence present in the middle of the Aβ peptides that is a critical region for aggregation (Fig. 1A) (Tjernberg et al., 1996). A quenched Aβ42 peptide was difficult to synthesize as the peptide was too aggregation-prone during synthesis, preventing efficient labeling with the small fluorophore. […] The qAβ peptides were added to cytoplasmic fractions of mildly lysed HEK293 cells, thereby preventing contamination with extracellular membrane-bound or lysosomal proteases, resulting in an increase in fluorescent signal (Fig. 1B). To identify which proteases play a role in this Aβ clearance machinery, different protease inhibitors were added to the cytosolic fractions prior to adding the qAβ. […]
HEK cells were lysed in 25 µM digitonin (Sigma) in KMH buffer (110 mM KAc, 2 mM MgAc and 20 mM Hepes-KOH, pH 7.2). Human and mouse brain hippocampal tissue was lysed in ± 400 µl (adjusted to the amount of tissue) of homogenization buffer (50 mM Tris/HCl pH 7.5, 250 mM sucrose, 5 mM MgCl2 and freshly added 2 mM ATP, 1 mM DTT and 0.025 % digitonin (Sigma)). Tissue was homogenized on ice in homogenization buffer using a homogenizer. Cell lysates were incubated for 30 minutes on ice and centrifuged for 15 minutes at 14.000 rpm at 4 °C.
HFIP-treated aliquots of Aβ40 were resuspended in DMSO followed by sonication for 10 minutes, immediately before use. 75 ng (340 nM) of quenched Aβ40 was added to 5 µg protein from the cell lysates in KMH buffer (110 mM KAc, 2 mM MgAc and 20 mM Hepes-KOH, pH 7.2) to a total volume of 50 µl. […] Degradation of the peptide was analyzed at 37°C using the FLUOstar OPTIMA (BMG Labtec.).

[3] = Electron microscopy of Aβ peptide oligomerisation; format: physicochemical; conditions: at 37°C, over time

Substance: DAEFRHDSGYE(q)HHQKLVFFA(f)DVGSNKGAIIGLMVGGVV [qAβ]
- decrease of qAβ degradation rate [1]: more than 65%
- qAβ degradation (fluorescence) ([2]; monomeric qAβ in HEK293 cytosolic fractions, without inhibitor): is degraded
- qAβ degradation (fluorescence) ([2]; qAβ in KMH buffer only, no lysate): not
- degradation of pre-incubated qAβ (fluorescent levels) ([2]; qAβ pre-incubated at 37 °C for 2-6 hours to oligomerize, then added to HEK293 cytosolic fraction): Reduced fluorescent levels
- oligomerisation (electron microscopy) [3]: increased oligomerisation with time

Reference: patent EP2746402A1, “Method of prognosis of Alzheimers disease and substrates for use therein” (Academisch Medisch Centrum, priority 2013, dated 2014)
